Experiments:
[1] = in vivo; cited from earlier work
liver cell = conditions: rat, in vivo

| Structure (SMILES) | Carcinogenicity [1] | pathology of liver cell hypertrophy in the liver (liver cell) |
| --- | --- | --- |
| CCCCC(CC)COC(=O)CCCCC(=O)OCC(CC)CCCC (centres unmarked) [Di(2-ethylhexyl)adipate] | + |  |
| IC(I)I [Iodoform] |  | pathology of liver cell hypertrophy was seen |
